Data from PubChem BioAssay (Tox21).
Values joined by “and” are separate entries in the source; they are usually repeats but may differ in a detail not shown here. Equal entries are not always repeated. The entries are a selection whose mix differs from that of the whole data set. Results filed as inconclusive are left out. Active and inactive are the calls of the source. The call rests on the fitted dose curve.

Assay: qHTS assay for small molecule agonists of the p53 signaling pathway (AID 651631); further: nearly all actives have a fitted effect of over 15% in size
Conditions: HCT-116 p53RE-bla reporter, beta-lactamase FRET ratio, 16 h; at 73.3 µM (top of the series) unless noted
Description: U.S. Tox21 Program National Center for Advancing Translational Sciences [NCATS] NIH Chemical Genomics Center [NCGC] U.S. Environmental Protection Agency [EPA] National Institutes of Environmental Health Sciences [NIEHS] National Toxicology Program [NTP] U.S. Food and Drug Administration [FDA] Tox21 Assay Overview: p53, a tumor suppressor protein, is activated following cellular insult, including DNA damage and other cellular stresses. The activation of p53 regulates cell fate by inducing DNA repair, cell cycle arrest, apoptosis, or cellular senescence. The activation of p53, therefore, is a good indicator of DNA damage and other cellular stresses. The CellSensor p53RE-bla HCT-116 cell line (Invitrogen) contains a stably integrated beta-lactamase reporter gene under control of the p53 response elements. The activation of the reporter gene under culture conditions can be detected by fluorescence intensity. This cell line was used to screen the Tox21 compound library in a 1536-well plate format and to identify agonists that activate the p53 signaling pathway.
Tox21 Assay Protocol Summary: The p53RE-bla cells were dispensed at 4,000 cells/5 ul/well in 1536-well black wall/clear bottom plates using a Multidrop dispenser. After the assay plates were incubated at a 37 C/5% CO2 incubator for 5 hours, 23 nL of compounds dissolved in DMSO, positive controls or DMSO only was transferred to the assay plate by a pin tool. The plates were incubated at 37 C for 16 hours. After 1 uL of LiveBLAzerTM B/G FRET substrate was added using a Flying Reagent Dispenser, the plates were incubated at room temperature for 2 hours, and fluorescence intensity was measured by an Envision plate reader.
On the % scale 0 is the no-effect control and ±100 the full control effect.

SMILES | activation
CN(C(=O)Cc1cccc2occc12)[C@H]1CC[C@@]2(CCCO2)C[C@@H]1N1CCCC1 | inactive: -1.64%
O=P(Cl)(Oc1ccccc1)Oc1ccccc1 | inactive: -1.62%
NC(=O)Nc1ccc([As](=O)(O)O)cc1 | inactive: -3.09% and inactive: 0.812%
CCCCO[P+](=O)OCCCC | inactive: -1.83%
O=[P+](Oc1ccccc1)Oc1ccccc1 | inactive: 2%
COP(=S)(Cl)OC | inactive: -4.89% [at 95.1 µM]
CC(C)CCCCCCCOP(OCCCCCCCC(C)C)Oc1ccccc1 | inactive: -3.37%
ClP(Cl)c1ccccc1 | inactive: 0.377%
COC(=O)Cl | inactive: -2.05%
CN(C(=O)Cc1ccccc1)[C@H]1CC[C@@]2(CCCO2)C[C@@H]1N1CCCC1 | inactive: -3.89%
CCOP(=S)(CC)Sc1ccccc1 (configuration not stated) | inactive: -1.45%
O=C(OC1CN2CCC1CC2)c1ccccc1 (configuration not stated) | inactive: -3.02%
